This data set concerns Human gingival fibroblasts.

Regarding eucalyptus oil, the “cytotoxicity of the microemulsion components (in words)” value is “significant cytotoxicity”.

The values are drawn from patent US20230130513A1, “Magnetic-Responsive Photosensitizer Nanoplatform and Uses Thereof” (University of Maryland, Baltimore, priority 2021, published 2023).
